## Reported melting point values for industrial, environmental and drug-like chemicals

Data: OPERA 2.9 data sets, kmansouri/OPERA on GitHub.

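The numbers are reported measurements, compiled and curated for the OPERA QSAR suite. One number stands for a compound and property, with no spread given. Method and conditions are not stated for these values. A value may pool stereoisomers or salt forms, and the file does not say which form was measured. Unmarked limits or estimates from the upstream databases cannot be ruled out.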

The melting point is given in degrees Celsius. "via" names the databases from which the curators took the value.

- COc1cccc(-c2nc(C=O)cs2)c1 [2-(3-Methoxyphenyl)-1,3-thiazole-4-carbaldehyde]: MP 93 °C (via OCHEM)
- O=[N+]([O-])c1cc(I)ccc1Cl [1-Chloro-4-iodo-2-nitrobenzene]: MP 72 °C (via OCHEM)
- Cc1ccc(S(C)(=O)=O)cc1S(=O)(=O)Cl [5-methanesulfonyl-2-methylbenzene-1-sulfonyl chloride]: MP 137 °C (via OCHEM)
- CC(C)(C)c1ccc(C(=O)CC#N)cc1 [3-(4-tert-butylphenyl)-3-oxopropanenitrile]: MP 79 °C (via OCHEM)
- Cn1cc(C(=O)O)ccc1=O [N(1)-Methyl-2-pyridone-5-carboxylic acid]: MP 237 °C (via OCHEM)
- Cc1c(C(=O)O)cnn1C [1,5-Dimethyl-1H-pyrazole-4-carboxylic acid]: MP 170 °C (via OCHEM)
- CCC1(CC)NC(=O)N(CC(=O)O)C1=O [(4,4-diethyl-2,5-dioxoimidazolidin-1-yl)acetic acid]: MP 171 °C (via OCHEM)
- COc1ccc(C(=O)CCC(=O)O)c2ccccc12 [Menbutone]: MP 172 °C (via OCHEM)
- Cc1oc2cc(O)ccc2c(=O)c1Oc1ccccc1 [4H-1-Benzopyran-4-one, 7-hydroxy-2-methyl-3-phenoxy-]: MP 236 °C (via OCHEM)
- NC(=S)c1cc2ccccc2oc1=O [2-oxo-2H-chromene-3-carbothioamide]: MP 242 °C (via OCHEM)
- Cc1ccc(CNC(=O)C2CCNCC2)cc1 [N-(4-methylbenzyl)piperidine-4-carboxamide]: MP 158 °C (via OCHEM)
- CC(=O)Oc1ccccc1C(=O)OCC(=O)N(C(C)C)C(C)C [2-(Diisopropylamino)-2-oxoethyl 2-acetoxybenzoate]: MP 108 °C (via OCHEM)
- CCCOc1ccc(Br)cc1C=O [5-bromo-2-propoxybenzaldehyde]: MP 48 °C (via OCHEM)
- CCCOc1ccc(C(=O)O)cc1OC [3-methoxy-4-propoxybenzoic acid]: MP 183 °C (via OCHEM)
- CCN(CC)S(=O)(=O)c1ccc(C)c(N)c1 [3-amino-N,N-diethyl-4-methylbenzenesulfonamide]: MP 110 °C (via OCHEM)
- O=C(O)c1cc(-c2cccc(Cl)c2)on1 [5-(3-Chlorophenyl)-1,2-oxazole-3-carboxylic acid]: MP 176 °C (via OCHEM)
- Cc1nn(-c2ccccc2)c(=O)[c-]1/N=N/c1cc([N+](=O)[O-])cc(S(=O)(=O)[O-])c1[O-].Cc1nn(-c2ccccc2)c(=O)[c-]1/N=N/c1cc([N+](=O)[O-])cc(S(=O)(=O)[O-])c1[O-].[Co+3].[Na+].[Na+].[Na+]: MP 299.9 °C (via eChemPortal)
- CC(C)(C)N(NC(=O)c1ccccc1)C(=O)c1c(Cl)cccc1Cl [N'-Benzoyl-N-tert-butyl-2,6-dichlorobenzohydrazide]: MP 198 °C (via OCHEM)
- Cc1ccc2cc(C=O)c(Cl)nc2c1 [2-chloro-7-methylquinoline-3-carbaldehyde]: MP 149 °C (via OCHEM)
- NC(=O)NC(C(=O)O)c1ccccc1 (stereo not given) [2-(carbamoylamino)-2-phenylacetic acid]: MP 202 °C (via OCHEM)
- Cc1ccc(N2CC(C(=O)O)CC2=O)cc1 (stereo not given) [5-Oxo-1-p-tolyl-pyrrolidine-3-carboxylic acid]: MP 185 °C (via OCHEM)
- FC(F)(F)C(F)(OCCC[Si](Cl)(Cl)Cl)C(F)(F)F: MP 0 °C (via ChemicalBook)
- O=C1CCn2cccc21 [3H-1,2-Dihydro-1-pyrrolizinone]: MP 55 °C (via OCHEM)
- O=C1OC(=O)c2cc(Oc3ccc(C(c4ccc(Oc5ccc6c(c5)C(=O)OC6=O)cc4)(C(F)(F)F)C(F)(F)F)cc3)ccc21: MP 228 °C (via ChemicalBook)
- O=C(O)CC(Br)C(=O)c1ccc(Cl)cc1 (stereo not given) [3-Bromo-4-(4-chlorophenyl)-4-oxobutanoic acid]: MP 115 °C (via OCHEM)
- CCOC(=O)c1c(C)noc1N [Ethyl 5-amino-3-methyl-1,2-oxazole-4-carboxylate]: MP 134 °C (via OCHEM)
- NC(=S)c1cccc([N+](=O)[O-])c1 [3-Nitrobenzene-1-carbothioamide]: MP 133 °C (via OCHEM)
- CCCCCCCCCCCC(=O)N(C)CCS(=O)(=O)[O-].[Na+] [Sodium N-lauroyl-N-methyltaurate]: MP 192.5 °C (via eChemPortal)
- O=S(=O)(Cl)c1ccccc1-c1ccccc1 [2-Phenylbenzenesulfonyl chloride]: MP 95 °C (via OCHEM)
- Cc1ccc2c(c1)=C(NO)C(=O)N=2: MP 240 °C (via OCHEM)
- O=[N+]([O-])c1cc2c(cc1Br)OCCO2 [6-Bromo-7-nitro-2,3-dihydro-1,4-benzodioxine]: MP 168 °C (via OCHEM)
- Brc1cnc(N2CCCCC2)nc1OCc1ccccc1 [4-(Benzyloxy)-5-bromo-2-(piperidin-1-yl)pyrimidine]: MP 106.5 °C (via OCHEM)
- Cc1cc(F)c2c(c1)C(=O)C(=O)N2 [7-Fluoro-5-methyl-1H-indole-2,3-dione]: MP 226 °C (via OCHEM)
- N=C(NO)c1ccccc1Cl [2-Chloro-N-hydroxybenzene-1-carboximidamide]: MP 89 °C (via OCHEM)
- O=C(O)C1(c2ccccc2)CCC1 [1-Phenylcyclobutanecarboxylic acid]: MP 106 °C (via OCHEM)
- Cc1cc(Br)ccc1SCC(=O)O [[(4-Bromo-2-methylphenyl)sulfanyl]acetic acid]: MP 126 °C (via OCHEM)
- COc1ccc(Oc2ccc(C=O)cc2[N+](=O)[O-])cc1 [4-(4-Methoxyphenoxy)-3-nitrobenzaldehyde]: MP 68 °C (via OCHEM)
- Cc1n[nH]c(=S)o1 [5-Methyl-[1,3,4]oxadiazole-2-thiol]: MP 240 °C (via OCHEM)
- O=C(O)C/C=C/c1cccc2c1OCO2 [(3E)-4-(1,3-Benzodioxol-4-yl)-3-butenoic acid]: MP 35 °C (via OCHEM)
- Nc1c(F)cc(O)cc1F [4-amino-3,5-difluorophenol]: MP 148.5 °C (via OCHEM)
- O=Cc1cccc(C(F)(F)F)c1Cl [2-Chloro-3-(trifluoromethyl)benzaldehyde]: MP 43.5 °C (via OCHEM)
- O=Cc1cn(-c2ccccc2)nc1-c1ccc(Cl)cc1 [3-(4-Chlorophenyl)-1-phenyl-1H-pyrazole-4-carbaldehyde]: MP 126 °C (via OCHEM)
- CCOc1ccc(-c2nnc(N)o2)cc1 [5-(4-Ethoxy-phenyl)-[1,3,4]oxadiazol-2-ylamine]: MP 239 °C (via OCHEM)
- Cc1nc(Cl)c2c3c(sc2n1)CCC3: MP 92 °C (via OCHEM)

Extract of 3 entries:

* CCCCCCCCCCCC(=O)N(C)CCS(=O)(=O)[O-].[Na+] [Sodium N-lauroyl-N-methyltaurate]: MP 192.5 °C (via eChemPortal)
* CC(C)(C)c1ccc(C(=O)CC#N)cc1 [3-(4-tert-butylphenyl)-3-oxopropanenitrile]: MP 79 °C (via OCHEM)
* Cc1ccc2cc(C=O)c(Cl)nc2c1 [2-chloro-7-methylquinoline-3-carbaldehyde]: MP 149 °C (via OCHEM)